Measured values taken from US20260263449A1, “METHODS AND COMPOSITIONS FOR TREATING COCAINE ADDICTION” (The Jackson Laboratory, priority 2023, published 2026).

Test system: C57BL/6NJ mice
Assay: hypothermia bioassay for blood-brain barrier penetration in mice
Conditions: intravenous injection, 10 mg/kg, temperature monitored for 120 minutes, vehicle 5% Kolliphor HS-15 and 5% NMP in saline

Q: Which “central hypothermia (internal temperature)” value does the source give for `CN(C)CCc1c[nH]c2ccc(C[C@H]3COC(=O)N3)cc12` [zolmitriptan, reference compound] here?
A: induced central hypothermia
